Data reported in publication PMC5079539 (Organic & biomolecular chemistry, 2016).

Tested on: cell line ET (luc-ubi-neo/ET), Huh7 human hepatoma cell line
Conditions: concentration decreasing cell viability by 50%, 72 hrs, CytoTox-ONE

## IFNα-2b: Recombinant human interferon alpha-2b, positive control
  CC50: > 10 µM
